The text below walks through data of US20200017566A1 (priority 2014, published 2020).

The target in this assay is T1, human ferroportin (Homo sapiens, UniProt Q9NP59).
T1 construct: expressed in transfected cells
T1 sequence (Q9NP59 1-571): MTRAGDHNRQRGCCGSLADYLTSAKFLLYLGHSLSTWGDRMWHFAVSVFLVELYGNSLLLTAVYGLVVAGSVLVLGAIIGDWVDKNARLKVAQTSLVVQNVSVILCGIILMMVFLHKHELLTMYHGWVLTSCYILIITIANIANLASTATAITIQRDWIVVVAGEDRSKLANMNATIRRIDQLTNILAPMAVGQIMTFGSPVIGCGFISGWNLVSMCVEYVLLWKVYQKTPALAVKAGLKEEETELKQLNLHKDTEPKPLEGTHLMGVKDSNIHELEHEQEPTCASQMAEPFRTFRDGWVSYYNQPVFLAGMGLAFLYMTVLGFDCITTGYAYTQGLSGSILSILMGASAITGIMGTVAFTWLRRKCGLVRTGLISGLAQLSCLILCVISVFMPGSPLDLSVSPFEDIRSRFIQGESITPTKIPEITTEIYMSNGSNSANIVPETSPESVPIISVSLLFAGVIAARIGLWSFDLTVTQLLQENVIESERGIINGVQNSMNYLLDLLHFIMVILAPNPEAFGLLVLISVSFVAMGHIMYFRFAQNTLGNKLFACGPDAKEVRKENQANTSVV
The format is cell-based. Particulars: read-out: Potency EC50. Here is the method:
Peptide analogues were tested in vitro for induction of internalization of the human ferroportin protein. Following internalization, the […] are degraded. The assay measures a decrease in fluorescence of the receptor.
The cDNA encoding the human ferroportin (SLC40A1) was cloned from a cDNA clone from Origene (NM_014585). The DNA encoding the ferroportin was amplified by PCR using primers also encoding terminal restriction sites for subcloning, but without the termination codon. The ferroportin receptor was subcloned into a mammalian GFP expression vector containing a neomycin (G418) resistance marker in such that the reading frame of the ferroportin was fused in frame with the GFP protein. The fidelity of the DNA encoding the protein was confirmed by DNA sequencing. HEK293 cells were used for transfection of the ferroportin-GFP receptor expression plasmid. The cells were grown according to standard protocol in growth medium and transfected with the plasmids using Lipofectamine (manufacturer's protocol, Invitrogen). […] The cells were propagated and frozen in aliquots.
Compound was added to desired final concentration for at least 18 hours in the incubator. […] Compound was added to desired final concentration for at least 18 hours but no more than 24 hours in the incubator.
A retro inverse peptide is a peptide with a reversed sequence in all D amino acids. An example is that Hy-Glu-Thr-His-NH2 becomes Hy-DHis-DThr-DGlu-NH2. The EC50 of these reference compounds for ferroportin degradation was determined according to the activity assay described above.

Like-named read-outs stand apart in the source and are kept apart here.

What is called EC50 is the concentration at which the effect is half-maximal. Regarding “Isovaleric acid-DTHFPICIFGPRSK-[(m-PEG8)]-GWVC-NH2 [Cmpd4]”, under “Table 14”, the EC50 is 0.0064 µM.

Take “Hy-DTHFPIC(1)IFC(2)C(3)GC(2)C(4)HRSKC(3)GMC(4)C(1)KT-OH [Hepcidin]”: the EC50 was determined as 0.034 µM (Table 11, reference compounds) and 0.034 µM (Table 14).
